IC50 data for two molecules are collected here from patent US10689378B2, “Triazolopyridine compounds and uses thereof” (Novartis AG, priority 2016, dated 2020).

Amino acid sequences for entries named in this document (tags omitted).
UniProt O75530, whole entry: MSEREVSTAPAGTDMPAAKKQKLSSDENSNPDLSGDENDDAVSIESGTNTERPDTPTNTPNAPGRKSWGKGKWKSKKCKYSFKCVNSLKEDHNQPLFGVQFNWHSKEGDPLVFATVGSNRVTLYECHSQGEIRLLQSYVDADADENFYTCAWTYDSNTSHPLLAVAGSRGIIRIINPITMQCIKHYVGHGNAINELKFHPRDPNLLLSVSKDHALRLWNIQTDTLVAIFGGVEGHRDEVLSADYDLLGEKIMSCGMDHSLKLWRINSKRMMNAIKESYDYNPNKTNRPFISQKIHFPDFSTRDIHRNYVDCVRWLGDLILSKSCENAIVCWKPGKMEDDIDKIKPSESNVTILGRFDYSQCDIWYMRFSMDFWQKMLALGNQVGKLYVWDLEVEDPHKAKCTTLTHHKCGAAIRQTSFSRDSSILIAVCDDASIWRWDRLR
UniProt Q15022, whole entry partner: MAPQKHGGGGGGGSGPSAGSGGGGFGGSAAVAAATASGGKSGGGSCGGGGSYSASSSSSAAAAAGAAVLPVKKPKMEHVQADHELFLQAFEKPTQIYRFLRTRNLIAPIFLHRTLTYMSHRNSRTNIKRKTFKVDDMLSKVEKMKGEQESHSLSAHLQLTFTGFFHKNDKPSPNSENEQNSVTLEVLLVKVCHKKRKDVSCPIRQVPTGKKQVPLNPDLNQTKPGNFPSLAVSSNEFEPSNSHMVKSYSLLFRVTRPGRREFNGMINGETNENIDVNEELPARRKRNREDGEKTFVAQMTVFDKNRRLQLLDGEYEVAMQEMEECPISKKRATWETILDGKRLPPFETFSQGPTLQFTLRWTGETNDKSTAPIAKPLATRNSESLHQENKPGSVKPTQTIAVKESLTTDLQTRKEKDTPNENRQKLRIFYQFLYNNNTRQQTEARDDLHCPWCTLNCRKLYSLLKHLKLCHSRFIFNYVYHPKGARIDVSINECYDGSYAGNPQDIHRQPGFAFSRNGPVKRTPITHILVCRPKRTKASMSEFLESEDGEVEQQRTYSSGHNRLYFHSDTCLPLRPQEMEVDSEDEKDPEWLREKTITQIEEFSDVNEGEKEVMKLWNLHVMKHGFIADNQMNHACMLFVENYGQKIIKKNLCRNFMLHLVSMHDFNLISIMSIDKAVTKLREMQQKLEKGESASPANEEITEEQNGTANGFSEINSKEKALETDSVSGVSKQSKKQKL
UniProt Q15910, whole entry partner: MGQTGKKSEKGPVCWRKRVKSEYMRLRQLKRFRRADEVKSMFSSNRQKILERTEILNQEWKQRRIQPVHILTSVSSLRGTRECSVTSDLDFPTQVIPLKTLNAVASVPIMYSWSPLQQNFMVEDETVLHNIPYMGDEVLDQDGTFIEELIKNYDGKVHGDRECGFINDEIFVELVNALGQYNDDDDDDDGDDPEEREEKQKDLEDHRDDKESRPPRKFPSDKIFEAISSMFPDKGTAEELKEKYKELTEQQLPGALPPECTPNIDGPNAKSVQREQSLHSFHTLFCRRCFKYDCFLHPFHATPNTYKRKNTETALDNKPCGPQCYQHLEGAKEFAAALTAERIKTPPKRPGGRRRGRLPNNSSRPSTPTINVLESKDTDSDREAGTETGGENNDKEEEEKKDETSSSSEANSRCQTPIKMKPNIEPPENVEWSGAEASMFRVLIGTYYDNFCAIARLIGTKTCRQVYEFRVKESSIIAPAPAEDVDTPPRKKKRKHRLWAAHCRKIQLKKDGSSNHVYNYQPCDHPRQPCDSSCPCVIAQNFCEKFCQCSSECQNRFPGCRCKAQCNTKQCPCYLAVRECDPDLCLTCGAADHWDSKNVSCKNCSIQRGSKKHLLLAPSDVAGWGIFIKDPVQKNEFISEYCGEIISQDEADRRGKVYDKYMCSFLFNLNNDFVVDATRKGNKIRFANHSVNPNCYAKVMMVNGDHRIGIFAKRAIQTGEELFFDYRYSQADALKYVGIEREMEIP
UniProt Q6ZN18, whole entry partner: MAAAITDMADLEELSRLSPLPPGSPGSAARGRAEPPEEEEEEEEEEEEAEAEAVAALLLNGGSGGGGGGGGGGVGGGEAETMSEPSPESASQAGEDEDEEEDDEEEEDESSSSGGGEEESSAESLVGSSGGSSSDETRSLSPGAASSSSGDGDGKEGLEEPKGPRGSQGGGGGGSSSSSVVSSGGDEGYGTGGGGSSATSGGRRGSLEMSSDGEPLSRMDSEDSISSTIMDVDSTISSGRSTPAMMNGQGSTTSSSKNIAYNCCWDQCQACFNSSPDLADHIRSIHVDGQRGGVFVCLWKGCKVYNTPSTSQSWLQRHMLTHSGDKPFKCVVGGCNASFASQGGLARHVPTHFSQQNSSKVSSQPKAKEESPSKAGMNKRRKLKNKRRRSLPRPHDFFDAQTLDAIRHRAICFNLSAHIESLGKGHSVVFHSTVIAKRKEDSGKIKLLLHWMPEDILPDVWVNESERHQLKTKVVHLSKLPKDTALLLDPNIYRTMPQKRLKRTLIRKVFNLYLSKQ
UniProt Q09028, whole entry partner: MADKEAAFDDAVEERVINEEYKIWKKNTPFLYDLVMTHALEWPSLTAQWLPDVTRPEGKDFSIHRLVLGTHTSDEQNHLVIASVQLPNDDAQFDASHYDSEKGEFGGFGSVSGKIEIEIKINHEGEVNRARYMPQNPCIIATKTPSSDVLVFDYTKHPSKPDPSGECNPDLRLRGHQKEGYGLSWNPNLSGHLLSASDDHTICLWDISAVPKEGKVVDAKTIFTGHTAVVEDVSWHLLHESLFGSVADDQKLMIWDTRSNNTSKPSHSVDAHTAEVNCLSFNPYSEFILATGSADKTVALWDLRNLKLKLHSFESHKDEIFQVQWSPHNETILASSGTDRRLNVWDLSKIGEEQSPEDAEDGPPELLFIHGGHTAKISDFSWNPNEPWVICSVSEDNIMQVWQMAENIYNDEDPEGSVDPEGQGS

Like-named read-outs stand apart in the source and are kept apart here.

The target of one test is EED (1-441)-His protein (Homo sapiens, UniProt O75530). Description: EED-H3K27Me3 peptide competition binding assay by AlphaScreen. The protocol:
EED-H3K27Me3 Peptide Competition Binding Assay by AlphaScreen (α-Screen)
To assess the compounds' potency in the EED-H3K27Me3 competition binding assay, compounds were serially diluted 3-fold in DMSO to obtain a total of twelve concentrations. Then compounds at each concentration (75 nL of each) were transferred by Mosquito into a 384-well Perkin Elmer ProxiPlate 384 plus plates. 8 uL of solutions containing 30 nM EED (1-441)-His protein and 15 nM biotin-H3K27Me3 (19-33) peptide in the buffer (25 mM HEPES, pH 8, 0.02% Tween-20, 0.5% BSA) were added to the wells and then incubated with compound for 20 min. AlphaScreen detection beads mix was prepared immediately before use by mixing nickel chelate acceptor beads and streptavidin donor beads in a 1:1 ratio (Perkin Elmer, Product No. 6760619C/M/R) into the buffer described above. Then 4 μL of detection beads mix was added to the plate and incubate in the dark at the rt for 1 h. The final concentration of donor and acceptor beads was 10 μg/mL for each. Plates were read on EnVision (PerkinElmer) using the AlphaScreen setting adapted for optimal signal detection with a 615 nm filter, after sample excitation at 680 nm. The emission signal at 615 nm was used to quantify compounds inhibition. […]
On the technique in general: Bead proximity is the source of the signal in Alpha formats.

For test [1], the system named is H3K27 methylation in G401 cell. Description: ELISA (H3K27 methylation) assay in G401 cells. The protocol:
(§1) Compounds of the present invention were assessed for their ability to inhibit PRC2 activity in a pentameric complex of EZH2, SUZ12, EED, Rbap48 and AEBP in biochemical assays. The ability of compounds of the present invention to inhibit cellular activity of PRC2 was assessed by analysing histone H3 lysine 27 methylation in human cell lines. The ability of compounds of the present invention to inhibit cancers was derived from their ability to modulate activity in human cancer cell lines bearing specific dependence to PRC2 activity to maintain cancerous growth.
ELISA (H3K27 Methylation) Assay
Representative compounds of the present invention were serially and separately diluted 3-fold in DMSO to obtain a total of eight or twelve concentrations. Then the compounds were added to G401 cell cultured in 384-well plate at 1:500 dilution to obtain the highest concentration of 20 μM. The cells were further cultured for 48 h before ELISA procedure. […]
ELISA protocol: Cell lysates were transferred to the wells of a 384-well plate and the final volume was adjusted to 50 μL per well with PBS. […] The signal was read using a PerkinElmer Envision Reader. The H3K27 methylation readouts were normalized using H3 signal and then percentage inhibition was calculated against the samples treated with DMSO. […]

Test [2] deals with wild type PRC2 (wtPRC2) complex (Homo sapiens, UniProt O75530). Description: EED LC-MS assay (SAH production by PRC2). The conditions noted are these: read-out: (b) IC50 EED LC-MS Qualified. How it is done: as §1
Representative compounds of the present invention were serially and separately diluted 3-fold in DMSO to obtain a total of eight or twelve concentrations. Then the test compounds at each concentration (120 nL of each) were transferred by Mosquito into a 384-well Perkin Elmer ProxiPlate 384 plus plates. Solutions (6 μL) of 24 nM the wild type PRC2 (wtPRC2) complex and 2 μM SAM in reaction buffer (20 mM Tris, pH 8.0, 0.1% BSA, 0.01% Triton, 0.5 mM DTT) were added to the wells that were then incubated with the test compound for 20 min. […] The reaction mixture was centrifuged (Eppendorf centrifuge 5810, Rotor A-4-62) for 2 min at 2000 rpm and read on an API 4000 triple quadrupole mass spec with Turbulon Spray (Applied Biosystem) coupled with Prominence UFLC (Shimadzu). […]

For orientation: IC50 means the point on the concentration scale where inhibition reaches its midpoint. For `COc1ccc(F)c(CNc2ccc(-c3ccc(S(=O)(=O)C4CCN(C)CC4)cc3)c3nncn23)c1`, the IC50 at EED (1-441)-His protein (read-out: (a) IC50, EED Alphascreen binding Qualified) amounted to 320 nM; in test [1] (read-out: (c) IC50, ELISA Qualified) it was 183 nM.
For the molecule `COc1cc(F)cc(F)c1CNc1ccc(-c2cnc(C)nc2C)c2nncn12`, the IC50 in test [2] came out at 60.7 nM; on EED (1-441)-His protein (read-out: (a) IC50 EED Alphascreen binding Qualified, EED-H3K27Me3 peptide competition, AlphaScreen), 35.9 nM; in test [1] (read-out: (c) IC50 ELISA Qualified, H3K27 methylation ELISA) it was 20.6 nM.
